In PubChem BioAssay AID2597 (National Center for Advancing Translational Sciences (NCATS), 2010):
This is a selection; strong and weak results do not stand in their true shares. Inconclusive results are not listed. Active and inactive are the calls of the source. The call rests on the fitted dose curve; in most records, active means well fitted curve in the direction sought with a large enough effect; inconclusive means small, poorly fitted or top-dose-only effect, or effect the other way, or another doubt; inactive means no such curve, though single readings can be large or run the other way.

By UniProt entry, the sequences of proteins in these tests, tags left out. Where a name states a change or a piece, a line headed by the entry shows the natural chain unless it says otherwise.
UniProt P04062: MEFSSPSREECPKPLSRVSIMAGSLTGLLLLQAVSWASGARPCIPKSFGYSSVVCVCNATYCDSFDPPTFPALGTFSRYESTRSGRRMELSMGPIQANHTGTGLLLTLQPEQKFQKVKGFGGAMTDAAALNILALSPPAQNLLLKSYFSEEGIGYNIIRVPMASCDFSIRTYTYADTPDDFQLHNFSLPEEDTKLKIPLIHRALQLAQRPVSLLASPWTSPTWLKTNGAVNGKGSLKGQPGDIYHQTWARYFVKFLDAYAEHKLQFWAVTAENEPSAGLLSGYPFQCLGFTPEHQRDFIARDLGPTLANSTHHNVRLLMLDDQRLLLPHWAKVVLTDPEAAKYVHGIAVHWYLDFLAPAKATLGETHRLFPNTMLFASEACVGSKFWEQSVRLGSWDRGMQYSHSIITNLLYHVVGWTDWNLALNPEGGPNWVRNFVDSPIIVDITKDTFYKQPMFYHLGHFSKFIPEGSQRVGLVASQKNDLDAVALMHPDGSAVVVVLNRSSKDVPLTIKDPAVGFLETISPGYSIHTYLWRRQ

Target: Lysosomal acid glucosylceramidase (Homo sapiens) (UniProt P04062)
Assay: qHTS Assay for Inhibitors and Activators of N370S glucocerebrosidase as a Potential Chaperone Treatment of Gaucher Disease: Purified N370S Glucocerebrosidase
Conditions: purified N370S GC, 4-MU-glucoside fluorescence, 40 min
Description: NIH Chemical Genomics Center [NCGC] NIH Molecular Libraries Probe Production Centers Network [MLPCN] MLPCN Grant: MH086442-01 Assay Submitter (PI): Wei Zheng Glucocerebrosidase (GC) catalyzes the hydrolysis of beta-glucocerebroside to glucose and ceramide in lysosomes. Mutations in the glucocerebrosidase gene result in Gaucher disease, an autosomal recessive lysosomal storage disorder. Many of the mutations encountered in patients with Gaucher disease are missense alterations that may cause misfolding, decreased stability and/or mistrafficking of this lysosomal protein. […] These inhibitors include iminosugar analogs and three non-iminosugar inhibitors identified from a previous HTS of 62,000 compounds with the wild type recombinant enzyme. However, the enhancement of enzyme activity by the chaperone action of an enzyme inhibitor must be balanced against the direct inhibition of the enzyme. An enzyme activator could also function as a chaperone by binding to the enzyme and helping to correct its misfolding and mistrafficking. While activators for GC have not yet been identified, they may have better therapeutic potential than inhibitors. Therefore the discovery and development of chemical activators may provide a new strategy for the chaperone therapy. We have optimized a new assay using N370S mutant GC derived from the spleen of a Gaucher patient. […]
NCGC Assay Protocol Summary: This is a fluorogenic enzyme assay with 4-methylumbelliferyl-beta-D-glucopyranoside as the substrate and purified N370S glucocerebrosidase as the enzyme preparation. Upon the hydrolysis of this fluorogenic substrate, the resulting product, […] which can be detected by a standard fluorescence plate reader. […] The AC50 values were determined from concentration-response data modeled with the standard Hill equation. […] (5) Add 2 ul stop solution (1M NaOH and 1M Glycine mixture, pH 10) (6) Detect the assay plate in a ViewLux plate reader (PerkinElmer) with Ex=365 nm and Em=440nm. […]

SMILES	Potency
Cc1cc(N2CCOCC2)nc2ccc(NC(=O)C3CCCCC3)cc12	active: 562 nM
CCc1nnc(NC(=O)c2ccc(NS(=O)(=O)c3ccccc3)cc2)s1	active: 1580 nM
COc1ccc(Cl)cc1Nc1nc(NCCO)nc(N2CCCC2)n1	active: 11200 nM
